Reference: ChEMBL document CHEMBL5108055, “Dual A1/A3 Adenosine Receptor Antagonists: Binding Kinetics and Structure-Activity Relationship Studies Using Mutagenesis and Alchemical Binding Free Energy Calculations” (J Med Chem, 2022)

Amino acid sequences for entries named in this document (tags omitted).
UniProt P30542, whole entry: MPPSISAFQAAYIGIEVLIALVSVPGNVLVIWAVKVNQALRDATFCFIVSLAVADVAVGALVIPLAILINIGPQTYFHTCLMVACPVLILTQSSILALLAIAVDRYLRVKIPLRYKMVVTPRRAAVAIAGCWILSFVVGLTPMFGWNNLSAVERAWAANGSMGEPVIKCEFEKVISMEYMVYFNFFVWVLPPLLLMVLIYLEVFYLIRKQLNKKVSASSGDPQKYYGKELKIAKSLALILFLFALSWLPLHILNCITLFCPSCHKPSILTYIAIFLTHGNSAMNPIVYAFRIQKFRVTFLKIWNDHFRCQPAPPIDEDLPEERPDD

Key:
[1] = target: T1, Adenosine receptor A1 (Homo sapiens, UniProt P30542); assay: Binding affinity to Nluc-A1R (unknown origin) expressed in HEK293 cells by nanoBRET assay; type: cell-based
[2] = target: T1, Adenosine receptor A1; assay: Antagonist activity at wild type A1R (unknown origin) expressed in CHO-K1 cells assessed as inhibition of NECA reduced forskolin stimulated cAMP accumulation incubated for 30 mins; type: functional, cell-based

Kd [1]: 0.0158 µM
IC50 [2]: 0.0479 µM
SMILES: O=C(Cc1ccccc1)Nc1nc2ccc(Cl)cc2c2nc(-c3ccco3)nn12
